# CycPeptMPDB entries from one study

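The data file gives no further conditions (lipid, pH, time, direction or concentration), and values from different papers need not be comparable. Other peptides of the study may be missing here. Peptides that the database sets to -10, its floor, are left out.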

PAMPA measures passive passage through an artificial lipid membrane.
P is given in units of 10^-6 cm/s (from log10 values with two decimals); larger means faster passage.

SMILES | PAMPA (10^-6 cm/s)
CC(C)C[C@@H]1NC(=O)[C@@H](CC(C)C)NC(=O)[C@@H](C)N(C)C(=O)[C@H](Cc2ccccc2)NC(=O)[C@@H](CC(C)C)NC(=O)[C@@H]2CCCN2C1=O | 3.2
CC(C)C[C@@H]1NC(=O)[C@@H]2CCCN2C(=O)CN(Cc2ccccc2)C(=O)[C@H](CC(C)C)N(C)C(=O)[C@@H](C)NC(=O)[C@H]2CCCN2C(=O)[C@H](Cc2ccccc2)NC1=O | 0.59
CC(C)C[C@@H]1NC(=O)[C@@H](CC(C)C)NC(=O)C[C@H](Cc2ccccc2)NC(=O)[C@H](Cc2ccccc2)NC(=O)[C@@H](CC(C)C)N(C)C(=O)[C@H]2CCCN2C1=O | 4.2
CC(C)C[C@@H]1NC(=O)C[C@H](Cc2ccccc2)NC(=O)[C@H](Cc2ccccc2)NC(=O)[C@@H](CC(C)C)N(C)C(=O)[C@H]2CCCN2C(=O)[C@@H](CC(C)C)NC1=O | 8.5
CC(C)C[C@@H]1NC(=O)[C@@H](CC(C)C)N(C)C(=O)[C@@H](C)NC(=O)[C@H](Cc2ccccc2)NC(=O)[C@H](CC(C)C)N(C)C(=O)[C@@H]2CCCN2C1=O | 5
CC(C)C[C@@H]1C(=O)N[C@@H](Cc2ccccc2)C(=O)N[C@@H](Cc2ccccc2)CC(=O)N[C@H](CC(C)C)C(=O)N[C@H](CC(C)C)C(=O)N2CCC[C@@H]2C(=O)N1C | 4.8
CC(C)C[C@@H]1C(=O)N(Cc2ccccc2)CC(=O)N2CCC[C@@H]2C(=O)N[C@H](CC(C)C)C(=O)N[C@@H](Cc2ccccc2)C(=O)N2CCC[C@@H]2C(=O)N[C@H](C)C(=O)N1C | 1.4
CC(C)C[C@H]1NC(=O)[C@H](CC(C)C)N(C)C(=O)[C@@H](C)NC(=O)[C@@H]2CCCN2C(=O)[C@H](Cc2ccccc2)NC(=O)[C@H](CC(C)C)N(C)C(=O)[C@@H]2CCCN2C1=O | 2.4
CC(C)C[C@H]1C(=O)N(Cc2ccccc2)CC(=O)N2CCC[C@@H]2C(=O)N(C)[C@@H](CC(C)C)C(=O)N[C@@H](Cc2ccccc2)C(=O)N[C@@H](Cc2ccccc2)CC(=O)N1C | 4.3
CC(C)C[C@@H]1NC(=O)[C@H](C)N(C)C(=O)[C@@H]2CCCN2C(=O)[C@H](Cc2ccccc2)NC(=O)[C@@H](CC(C)C)N(C)C(=O)[C@H]2CCCN2C(=O)C[C@H](Cc2ccccc2)NC1=O | 2.2
CC(C)C[C@@H]1C(=O)N[C@H](CC(C)C)C(=O)N2CCC[C@H]2C(=O)N[C@H](CC(C)C)C(=O)N[C@@H](Cc2ccccc2)C(=O)N(C)[C@H](C)C(=O)N1C | 5.6
CCCN1CC(=O)N[C@H](CC(C)C)C(=O)N(Cc2ccccc2)CC(=O)N2CCC[C@@H]2C(=O)N(C)[C@@H](CC(C)C)C(=O)N[C@@H](Cc2ccccc2)C1=O | 9.1
CC(C)C[C@H]1C(=O)N[C@@H](Cc2ccccc2)CC(=O)N2CCC[C@H]2C(=O)N(C)[C@@H](CC(C)C)C(=O)N[C@@H](Cc2ccccc2)C(=O)N2CCC[C@@H]2C(=O)N[C@H](C)C(=O)N1C | 9.1
CC(C)C[C@@H]1NC(=O)CN(Cc2ccccc2)C(=O)C[C@H](Cc2ccccc2)NC(=O)[C@@H]2CCCN2C(=O)[C@H](Cc2ccccc2)NC(=O)[C@@H](CC(C)C)NC(=O)[C@@H]2CCCN2C1=O | 0.95
CC(C)C[C@H]1C(=O)N[C@@H](Cc2ccccc2)C(=O)N2CCC[C@@H]2C(=O)N[C@@H](Cc2ccccc2)CC(=O)N(Cc2ccccc2)CC(=O)N[C@@H](Cc2ccccc2)CC(=O)N2CCC[C@@H]2C(=O)N1C | 2
CC(C)C[C@H]1C(=O)N[C@@H](Cc2ccccc2)C(=O)N2CCC[C@@H]2C(=O)N(C)[C@H](C)C(=O)N(Cc2ccccc2)CC(=O)N[C@@H](Cc2ccccc2)CC(=O)N2CCC[C@H]2C(=O)N1C | 3.4

Data: CycPeptMPDB; original report Townsend et al. 2020, doi:10.26434/chemrxiv.13335941.v1.